Source: patent publication US20260207649A1, “LSD1 INHIBITOR AND PRMT6 INHIBITOR FOR USE IN THE TREATMENT OF A DISEASE ASSOCIATED WITH GAIN-OF-FUNCTION OF ANDROGEN RECEPTOR (AR) AND/OR WITH OVEREXPRESSION OF AN AR COACTIVATOR” (FONDAZIONE TELETHON ETS(30%), priority 2022, published 2026)

Legend:
AR24Q (human) = AR24Q (human) (UniProt P10275); assay: cell-based or functional assay
AR65Q (human) = AR65Q (human) (UniProt P10275); assay: cell-based or functional assay

## lysine specific demethylase 1 (LSD1) (from UniProt O60341 1-852) (enzyme)
AR24Q (human)
  AR transactivation (ARE-luciferase transcriptional assay, HEK293T cells, DHT 10 nM): 1.4 fold
  AR transactivation (transcriptional assay, HEK293T cells): 1.3 fold
AR65Q (human)
  AR transactivation (ARE-luciferase transcriptional assay, HEK293T cells, DHT 10 nM): 1.4 fold
  AR transactivation (transcriptional assay, HEK293T cells): 1.5 fold
